The data set is described as follows: Solubility in water. The settings on record: description of test compound in LD50 report. Type of data set: physicochemical. On the procedure: The resultant solution was spray dried to yield a salt of hydroxycitric acid with the following analysis: potassium content 11% to 18%, calcium content 5% to 12%, structural moisture 3% to 5% and hydroxycitric acid content 70% to 76%. The sodium content was less than 0.5% and lactone less than 0.5%. […] This salt composition is tasteless and white in color. A solution of 5 g in 100 ml of de-ionized sterile water was subjected to an accelerated storage study chamber for 2 months.

On to “Combined Potassium-Calcium Salts of Hydroxycitric Acid [Example 3]”, for which the Solubility entry is listed as “Soluble In Water”.
